Target: human Nav1.7 (Homo sapiens (Human), UniProt Q15858)
Assay: FLIPR or FLIPR TETRA sodium dye assay with KCl and test article pre-incubation
Type: cell-based
Settings: sodium dye assay with KCl; recombinant Nav1.7/HEK293 cells; read-out: Nav1.7 IC50 (μM) ± SEM

Amino acid sequences for entries named in this document (tags omitted). Chains listed by the source or under a name are the forms on record and can include a tag or linker.
UniProt Q15858, other isoform, or with tags, fused parts or gaps: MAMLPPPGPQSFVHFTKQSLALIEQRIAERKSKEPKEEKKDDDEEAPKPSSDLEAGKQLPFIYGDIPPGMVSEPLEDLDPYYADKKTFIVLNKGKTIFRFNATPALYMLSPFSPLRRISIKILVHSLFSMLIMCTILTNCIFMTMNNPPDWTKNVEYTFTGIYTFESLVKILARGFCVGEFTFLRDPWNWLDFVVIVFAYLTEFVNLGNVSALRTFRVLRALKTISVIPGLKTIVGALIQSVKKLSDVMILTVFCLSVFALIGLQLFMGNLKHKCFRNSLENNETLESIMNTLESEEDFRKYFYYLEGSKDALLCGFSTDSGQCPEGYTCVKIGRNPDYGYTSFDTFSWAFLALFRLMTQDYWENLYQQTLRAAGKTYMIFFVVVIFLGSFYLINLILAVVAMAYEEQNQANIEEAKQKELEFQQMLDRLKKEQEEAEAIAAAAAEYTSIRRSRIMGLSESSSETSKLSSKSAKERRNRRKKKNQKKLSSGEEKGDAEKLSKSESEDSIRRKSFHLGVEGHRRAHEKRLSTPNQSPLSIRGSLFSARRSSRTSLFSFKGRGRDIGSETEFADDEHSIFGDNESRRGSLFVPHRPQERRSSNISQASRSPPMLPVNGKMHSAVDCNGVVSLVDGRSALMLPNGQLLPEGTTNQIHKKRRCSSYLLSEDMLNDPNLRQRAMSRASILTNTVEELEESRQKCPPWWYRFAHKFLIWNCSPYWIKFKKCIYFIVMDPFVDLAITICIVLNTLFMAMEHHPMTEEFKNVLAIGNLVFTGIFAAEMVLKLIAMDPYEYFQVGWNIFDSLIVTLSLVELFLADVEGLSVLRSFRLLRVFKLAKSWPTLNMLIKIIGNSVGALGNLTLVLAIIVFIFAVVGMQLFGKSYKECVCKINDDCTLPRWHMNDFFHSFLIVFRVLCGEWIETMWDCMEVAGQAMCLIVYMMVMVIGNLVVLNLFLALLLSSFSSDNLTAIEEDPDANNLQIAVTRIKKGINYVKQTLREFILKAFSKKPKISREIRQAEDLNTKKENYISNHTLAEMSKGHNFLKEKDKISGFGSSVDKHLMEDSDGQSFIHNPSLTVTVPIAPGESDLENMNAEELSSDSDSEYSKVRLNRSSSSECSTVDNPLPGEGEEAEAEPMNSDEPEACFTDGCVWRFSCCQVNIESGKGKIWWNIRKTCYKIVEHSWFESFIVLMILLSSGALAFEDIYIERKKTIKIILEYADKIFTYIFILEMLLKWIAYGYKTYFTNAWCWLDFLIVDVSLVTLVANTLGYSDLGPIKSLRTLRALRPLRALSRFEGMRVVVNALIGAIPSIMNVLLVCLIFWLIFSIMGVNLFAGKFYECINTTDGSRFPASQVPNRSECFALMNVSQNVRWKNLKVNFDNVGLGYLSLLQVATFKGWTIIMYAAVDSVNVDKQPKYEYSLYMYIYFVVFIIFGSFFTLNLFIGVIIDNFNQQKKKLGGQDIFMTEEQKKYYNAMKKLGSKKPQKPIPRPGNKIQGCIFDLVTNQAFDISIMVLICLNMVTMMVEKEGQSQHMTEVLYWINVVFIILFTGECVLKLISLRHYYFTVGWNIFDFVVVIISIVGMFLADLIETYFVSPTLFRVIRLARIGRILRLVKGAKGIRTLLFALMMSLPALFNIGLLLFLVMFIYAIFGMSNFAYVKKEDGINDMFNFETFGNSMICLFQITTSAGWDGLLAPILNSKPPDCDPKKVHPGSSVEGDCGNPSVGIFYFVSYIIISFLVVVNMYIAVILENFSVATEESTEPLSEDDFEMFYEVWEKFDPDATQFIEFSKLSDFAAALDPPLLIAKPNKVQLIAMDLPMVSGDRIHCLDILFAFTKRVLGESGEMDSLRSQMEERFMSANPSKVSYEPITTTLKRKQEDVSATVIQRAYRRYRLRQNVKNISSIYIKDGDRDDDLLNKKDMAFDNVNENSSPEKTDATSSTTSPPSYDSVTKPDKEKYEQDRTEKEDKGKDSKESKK

Structure (SMILES)	IC50 [µM]
O=C(NCCNS(=O)(=O)c1cccnc1)c1cccc(-c2ccc(Oc3ccc(F)cc3)cc2)n1 [Compound 22, 6-(4-(4-fluorophenoxy)phenyl)-N-(2-(pyridine-3-sulfonamido)ethyl)picolinamide]	0.31 ± 0.03
C[C@H](NC(=O)c1cccc(-c2ccc(Oc3ccc(F)cc3)cc2)n1)C(N)=O [Compound 38, 6-[4-(4-fluoro-phenoxy)-phenyl]-pyridine-2-carboxylic acid ((S)-1-carbamoyl-ethyl)-amide]	0.31 ± 0.03
